The record followed here is ChEMBL document CHEMBL4823282, “Novel Broad-Spectrum Antimicrobial Peptide Derived from Anoplin and Its Activity on Bacterial Pneumonia in Mice” (J Med Chem, 2021).

Test [1] concerns Staphylococcus aureus. As to the kind of experiment: Antibacterial activity against Staphylococcus aureus ATCC 25923 incubated for 18 hrs by CLSI based broth dilution method. Format: functional.
The subject of test [2] is Bacillus subtilis. As to the kind of experiment: Antibacterial activity against Bacillus subtilis ATCC 23857 incubated for 18 hrs by CLSI based broth dilution method. Format: functional.
For test [3], the system named is Staphylococcus epidermidis. As to the kind of experiment: Antibacterial activity against Staphylococcus epidermidis ATCC 12228 incubated for 18 hrs by CLSI based broth dilution method. Format: functional.
Test [4] has as its system Escherichia coli. As to the kind of experiment: Antibacterial activity against Escherichia coli ATCC 25922 incubated for 18 hrs by CLSI based broth dilution method. It counts as functional.
In test [5] the test system is Pseudomonas aeruginosa. As to the kind of experiment: Antibacterial activity against Pseudomonas aeruginosa ATCC 27853 incubated for 18 hrs by CLSI based broth dilution method. It counts as functional.
The nature of test [6]: Cytotoxicity against human glomerular mesangial cells incubated for 12 hrs by MTT assay. As to conditions: Glomerular mesangial cell. It counts as cell-based.

Structures are written as SMILES. Converted amounts (≈) assume the structure as drawn.

Turning to `CC[C@H](C)[C@H](NC(=O)CN)C(=O)NCC(=O)N[C@@H](C)C(=O)N[C@H](C(=O)N[C@@H](CC(C)C)C(=O)N[C@@H](CCCCN)C(=O)N[C@H](C(=O)N[C@@H](CC(C)C)C(=O)N[C@H](C(=O)N[C@H](C(=O)NCC(=O)N[C@@H](CC(C)C)C(=O)N1CCC[C@H]1C(=O)N[C@@H](C)C(=O)N[C@@H](CC(C)C)C(=O)N[C@H](C(=O)N[C@@H](CO)C(=O)N[C@@H](Cc1c[nH]c2ccccc12)C(=O)N[C@H](C(=O)N[C@@H](CCCCN)C(=O)N[C@@H](CCCNC(=N)N)C(=O)N[C@@H](CCCCN)C(=O)N[C@@H](CCCNC(=N)N)C(=O)N[C@@H](CCC(N)=O)C(=O)N[C@@H](CCC(N)=O)C(N)=O)[C@@H](C)CC)[C@@H](C)CC)[C@@H](C)O)[C@@H](C)O)C(C)C)C(C)C` [MELITTIN], the minimum inhibitory concentration (MIC) in test [1] came to 2 µM (≈ 5.69 µg/mL); in test [2], 1 µM (≈ 2.85 µg/mL); in test [3] it was 4 µM (≈ 11.4 µg/mL); in test [4], 8 µM (≈ 22.8 µg/mL); in test [5] it was 8 µM (≈ 22.8 µg/mL). In addition, the IC50 in test [6] came out at 1490 nM.
